Literature values as cited in patent publication US6231888A, “Local delivery of non steroidal anti inflammatory drugs (NSAIDS) to the colon as a treatment for colonic polyps” (Perio Products Ltd., priority 1998, dated 2001).

How the values were obtained:
[1] = tested on: villous adenomas of the cecum; conditions: 30 mg weekly

For CN1C(C(=O)Nc2ccccn2)=C(O)c2ccccc2S1(=O)=O [piroxicam], the “Regression of adenomatous polyps” value (sporadic colonic polyps) is given as “no similar regression of adenomatous polyps”, the Duration of regression [1] is given as “up to 20 months” and the “Regression of the premalignant adenomas” value [1] is given as “dramatic and sustained regression”.
